Results taken from paper PMC10573254, “Development of Novel Class of Phenylpyrazolo[3,4-d]pyrimidine-Based Analogs with Potent Anticancer Activity and Multitarget Enzyme Inhibition Supported by Docking Studies” (International Journal of Molecular Sciences, 2023).

By UniProt entry, the sequences of proteins in these tests, tags left out. Residues count along the entry.
UniProt P35968, 20-1356 limits assumed: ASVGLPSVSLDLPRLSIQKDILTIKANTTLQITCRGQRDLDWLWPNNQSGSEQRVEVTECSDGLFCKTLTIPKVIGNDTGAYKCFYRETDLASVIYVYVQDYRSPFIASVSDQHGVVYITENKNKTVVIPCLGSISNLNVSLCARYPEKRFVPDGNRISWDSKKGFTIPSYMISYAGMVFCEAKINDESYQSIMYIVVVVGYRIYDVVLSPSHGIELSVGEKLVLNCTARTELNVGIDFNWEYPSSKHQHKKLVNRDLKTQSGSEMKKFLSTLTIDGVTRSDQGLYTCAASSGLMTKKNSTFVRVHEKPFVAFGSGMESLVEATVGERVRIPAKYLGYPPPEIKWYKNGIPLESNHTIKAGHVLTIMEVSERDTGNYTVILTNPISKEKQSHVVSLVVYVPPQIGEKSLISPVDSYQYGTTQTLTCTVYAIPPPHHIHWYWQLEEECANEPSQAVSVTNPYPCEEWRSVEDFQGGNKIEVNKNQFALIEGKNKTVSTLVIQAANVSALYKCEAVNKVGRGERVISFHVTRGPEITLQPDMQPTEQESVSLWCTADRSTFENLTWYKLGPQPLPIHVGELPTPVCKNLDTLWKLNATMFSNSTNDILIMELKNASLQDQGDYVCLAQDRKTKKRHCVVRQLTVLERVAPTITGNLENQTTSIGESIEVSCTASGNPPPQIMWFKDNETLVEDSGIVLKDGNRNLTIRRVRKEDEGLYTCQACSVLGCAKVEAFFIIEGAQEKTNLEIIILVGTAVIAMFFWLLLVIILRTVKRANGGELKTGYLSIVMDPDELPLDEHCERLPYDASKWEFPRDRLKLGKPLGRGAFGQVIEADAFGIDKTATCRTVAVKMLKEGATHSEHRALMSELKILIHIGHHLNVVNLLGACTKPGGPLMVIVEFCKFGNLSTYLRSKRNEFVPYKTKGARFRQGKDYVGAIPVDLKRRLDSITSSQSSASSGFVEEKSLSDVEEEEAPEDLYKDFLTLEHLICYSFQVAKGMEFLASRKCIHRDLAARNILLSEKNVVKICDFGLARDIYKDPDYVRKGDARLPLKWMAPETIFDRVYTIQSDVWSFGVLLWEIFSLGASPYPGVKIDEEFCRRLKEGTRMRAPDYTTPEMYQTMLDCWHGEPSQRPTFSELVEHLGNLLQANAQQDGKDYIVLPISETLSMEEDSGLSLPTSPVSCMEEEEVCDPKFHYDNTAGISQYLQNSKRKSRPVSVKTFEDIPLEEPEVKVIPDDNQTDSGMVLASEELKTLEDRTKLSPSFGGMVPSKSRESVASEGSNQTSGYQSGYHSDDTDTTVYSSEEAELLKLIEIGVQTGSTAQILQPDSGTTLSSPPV
UniProt Q02880, 2-1626 limits assumed: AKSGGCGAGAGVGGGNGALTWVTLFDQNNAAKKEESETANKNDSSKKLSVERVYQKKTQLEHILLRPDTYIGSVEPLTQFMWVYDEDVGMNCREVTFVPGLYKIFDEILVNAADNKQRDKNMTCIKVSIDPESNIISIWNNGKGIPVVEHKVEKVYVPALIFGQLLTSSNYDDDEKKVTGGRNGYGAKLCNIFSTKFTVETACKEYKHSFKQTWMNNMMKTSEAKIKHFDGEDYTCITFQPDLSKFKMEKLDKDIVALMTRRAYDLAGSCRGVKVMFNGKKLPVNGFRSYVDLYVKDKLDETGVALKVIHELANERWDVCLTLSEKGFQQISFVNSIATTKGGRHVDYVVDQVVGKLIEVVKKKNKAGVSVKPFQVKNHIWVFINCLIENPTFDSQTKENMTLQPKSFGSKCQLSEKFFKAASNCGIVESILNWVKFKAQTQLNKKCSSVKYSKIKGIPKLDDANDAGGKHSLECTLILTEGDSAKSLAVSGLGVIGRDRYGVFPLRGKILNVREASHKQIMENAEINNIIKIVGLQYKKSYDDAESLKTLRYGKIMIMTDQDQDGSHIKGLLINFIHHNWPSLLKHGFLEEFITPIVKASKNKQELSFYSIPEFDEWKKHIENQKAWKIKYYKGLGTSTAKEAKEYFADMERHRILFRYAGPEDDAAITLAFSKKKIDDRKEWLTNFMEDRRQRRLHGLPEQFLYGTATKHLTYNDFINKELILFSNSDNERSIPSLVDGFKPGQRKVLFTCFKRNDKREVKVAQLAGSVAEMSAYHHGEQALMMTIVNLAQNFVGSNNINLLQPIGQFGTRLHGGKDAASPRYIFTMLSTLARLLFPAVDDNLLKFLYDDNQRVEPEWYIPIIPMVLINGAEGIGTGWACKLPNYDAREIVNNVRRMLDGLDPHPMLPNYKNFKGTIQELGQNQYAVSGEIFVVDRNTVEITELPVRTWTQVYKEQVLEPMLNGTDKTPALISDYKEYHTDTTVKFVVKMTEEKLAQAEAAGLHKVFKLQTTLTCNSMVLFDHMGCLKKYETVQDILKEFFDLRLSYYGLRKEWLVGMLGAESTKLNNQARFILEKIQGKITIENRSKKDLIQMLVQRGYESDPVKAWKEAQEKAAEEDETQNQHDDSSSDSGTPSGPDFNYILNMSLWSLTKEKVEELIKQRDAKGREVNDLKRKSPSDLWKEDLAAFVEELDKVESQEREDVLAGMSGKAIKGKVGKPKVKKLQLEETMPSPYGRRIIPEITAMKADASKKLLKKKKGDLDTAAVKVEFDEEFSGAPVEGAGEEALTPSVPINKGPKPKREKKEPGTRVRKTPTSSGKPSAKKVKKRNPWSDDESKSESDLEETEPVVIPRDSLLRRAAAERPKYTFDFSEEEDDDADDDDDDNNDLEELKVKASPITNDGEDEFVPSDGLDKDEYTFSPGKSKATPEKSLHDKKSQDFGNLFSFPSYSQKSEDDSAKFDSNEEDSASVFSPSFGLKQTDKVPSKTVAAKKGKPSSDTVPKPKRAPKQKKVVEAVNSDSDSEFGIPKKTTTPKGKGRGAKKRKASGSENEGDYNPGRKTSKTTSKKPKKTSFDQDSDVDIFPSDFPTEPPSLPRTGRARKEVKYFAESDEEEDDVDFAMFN

Columns and labels:
VEGFR-2 = VEGFR-2 (Homo sapiens, UniProt P35968); test: In vitro VEGFR2 enzyme inhibitory assay; format: biochemical; details: for VEGFR2 %inh at conc 0.01: conc 0.01, unit not given; for VEGFR2 %inh at conc 0.1: conc 0.1, unit not given; for VEGFR2 %inh at conc 1: conc 1, unit not given; for VEGFR2 %inh at conc 10: conc 10, unit not given; for VEGFR2 IC50 (lab report): supplement lab report
Topo-II = Topo-II (Homo sapiens, UniProt Q02880); test: In vitro Topo II inhibitory assay; format: biochemical; details: for TOPO IiB %inh at conc 0.1: conc 0.1, unit not given; for TOPO IiB %inh at conc 1: conc 1, unit not given; for TOPO IiB %inh at conc 10: conc 10, unit not given; for TOPO IiB %inh at conc 100: conc 100, unit not given; for TOP2a IC50 (lab report): supplement lab report, Human DNA Topoisomerase 2B Kit

SMILES	VEGFR2 %inh at conc 0.01 (VEGFR-2) [%]	VEGFR2 %inh at conc 0.1 (VEGFR-2) [%]	VEGFR2 %inh at conc 1 (VEGFR-2) [%]	VEGFR2 %inh at conc 10 (VEGFR-2) [%]	VEGFR2 IC50 (lab report) (VEGFR-2) [µg/mL]	TOPO IiB %inh at conc 0.1 (Topo-II) [%]	TOPO IiB %inh at conc 1 (Topo-II) [%]	TOPO IiB %inh at conc 10 (Topo-II) [%]	TOPO IiB %inh at conc 100 (Topo-II) [%]	TOP2a IC50 (lab report) (Topo-II) [µg/mL]
COc1ccccc1C=NNc1nc(C)nc2c1cnn2-c1ccccc1 [Compound 5e, 4-(2-(2-Methoxybenzylidene)hydrazineyl)-6-methyl-1-phenyl-1H-pyrazolo[3,4-d]pyrimidine]	31	55	76	91	0.119	11	29	62	77	5.38
Cc1nc(NN=Cc2ccccc2)c2cnn(-c3ccccc3)c2n1 [Compound 5a, 4-(2-Benzylidenehydrazinyl)-6-methyl-1-phenyl-1H-pyrazolo[3,4-d]pyrimidine]	28	43	78	89	0.26	16	34	57	71	6.21
COc1ccc(C=NNc2nc(C)nc3c2cnn3-c2ccccc2)cc1 [Compound 5d]	23	41	71	87	0.459	4.5	8.4	24	59	89.5
